# scFv variants of Ab-14 (heavy chain) against a SARS-CoV-2 spike peptide

Target: peptide PDVDLGDISGINAS, taken from heptad repeat 2 (HR2) of SARS-CoV-2 spike.

Parent: Ab-14, a human scFv built as VH, a (GGGGS)3 linker, VL. Only the CDRs of the heavy chain vary.
VH: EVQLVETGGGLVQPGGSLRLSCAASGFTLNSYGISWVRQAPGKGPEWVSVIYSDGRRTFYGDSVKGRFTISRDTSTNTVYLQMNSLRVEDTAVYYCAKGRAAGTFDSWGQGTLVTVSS
VL: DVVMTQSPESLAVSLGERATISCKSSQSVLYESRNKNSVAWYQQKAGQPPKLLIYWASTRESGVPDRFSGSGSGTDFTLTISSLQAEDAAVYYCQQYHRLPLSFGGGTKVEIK

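Designed CDR sequences, proposed from the first random library and measured here. Group labels follow the data file (Ctrl: baseline library sampled from a position-specific scoring matrix, with some repeated check sequences; GPLM: also part of the Gaussian process libraries; Gen: genetic algorithm; a sequence that several methods proposed may carry one label only). The assay is AlphaSeq: two haploid yeast populations carry antibody and antigen on their surface. Pairs that bind mate more often; barcode pairs of the diploids are counted by sequencing. A regression on co-assayed BCL2-family reference pairs converts the normalised counts of each replicate to an apparent Kd. There are six technical replicates.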

Substitutions are numbered in sequence along the VH above, starting at 1 (not Kabat).
Affinities are written as log10 Kd with Kd in nM; a lower number is a better binder.
Replicates are averaged; those with no signal do not enter the mean.
Where no diploid with the target was found in that replicate, the entry reads "ND": below detection, most likely a poor binder, though not proof of it.
Where one sequence has several entries in the source, the replicates are listed entry by entry, parted by semicolons.
Of ten entries with the parent sequence, four were seen in most replicates (averages 0.34 to 2.37), three in one and three in none, so single entries are noisy.
In the paper, a design with two or fewer of six values counts as a poor binder.
The range of this assay differs from that of the first round, and the authors advise against merging the two.
Empty control strains, which show no peptide, gave a signal in 1% of pairings with all heavy chain designs; the median was 2.08 and 95% of these signals were weaker than 0.84. No background was subtracted. For each scFv, signals with the empty controls are counted beside the result, with their mean in brackets.

changes | group | log10 Kd (nM) by replicate | mean, log10 nM | control signals
G61S/R100D | Ctrl+GPLM_Gen | 0.68 / 0.58 / 1.48 / 2.33 / 0.77 / 1.28; 1.00 / -0.14 / 0.07 / ND / 0.04 / 0.38 | 0.77 | 1/36 (1.66)
S53A/F59A/S107Q | Ctrl | ND / ND / ND / ND / ND / ND | ND | 0/18
S35Q/T104L/S107L | Ctrl | ND / ND / ND / ND / ND / ND | ND | 0/18
G26N/R100K | Ctrl | 0.14 / 0.09 / -0.11 / -0.18 / 0.21 / -0.18 | -0.01 | 0/18
Y32F | Ctrl | ND / ND / ND / ND / ND / ND | ND | 0/18
S31E/G61Q/A101I/G103I | Ctrl | ND / ND / ND / ND / ND / ND | ND | 0/18
R56Q/A101E | Ctrl | 0.79 / ND / ND / ND / ND / 4.15 | 2.47 | 0/18
G61L/A102Q | Ctrl | ND / ND / ND / ND / ND / ND | ND | 0/18
F27L/S31D/I34T/R56Y/G61Q | Ctrl | 1.22 / 0.53 / 0.54 / 1.90 / 0.69 / 3.26 | 1.36 | 0/18
L29I/I51M/G61A | Ctrl | 1.01 / 0.70 / 1.25 / 1.61 / ND / 0.63 | 1.04 | 1/18 (3.37)
F27E/N30E/G61V/V64N/A101N/T104Q | Ctrl | ND / ND / ND / ND / ND / ND | ND | 0/18
N30L/S31E/S63I/G99A/R100N/G103T/T104W | Ctrl | ND / ND / ND / ND / ND / ND | ND | 0/18
T104H | Ctrl | ND / ND / ND / ND / ND / ND | ND | 0/18
I34L | Ctrl | ND / ND / ND / ND / ND / ND | ND | 0/18
I34Y/V64F/A101E | Ctrl | ND / ND / ND / ND / ND / ND | ND | 0/18
F59A/V64F/R100W/T104R | Ctrl | ND / ND / ND / ND / ND / ND | ND | 0/18
S53A/R56Q/S63F/D106E | Ctrl | ND / 1.61 / ND / 2.21 / 2.66 / 2.48 | 2.24 | 0/18
G26K/D106F | Ctrl | ND / ND / ND / ND / ND / ND | ND | 0/18
R56K/G61L | Ctrl | 2.04 / ND / ND / ND / 2.22 / 2.22 | 2.16 | 0/18
S31D/A101F/A102G | Ctrl | ND / ND / ND / ND / ND / ND | ND | 0/18
G26R/I34C/S53M/S107W | Ctrl | ND / ND / ND / ND / ND / ND | ND | 0/18
F59A/G99A/A102C/D106F | Ctrl | ND / ND / ND / ND / ND / ND | ND | 0/18
S31Q/F59S/S63Q/R100I | Ctrl | 1.22 / 1.49 / 0.74 / 0.70 / 0.82 / 1.36 | 1.06 | 0/18
S63E/A102V | Ctrl | ND / ND / ND / ND / ND / ND | ND | 0/18
N30D/S31L/A101L | Ctrl | 0.12 / 1.46 / 0.64 / -0.36 / 0.10 / -0.18 | 0.29 | 0/18
T28N/S31Q/T58V/F59A | Ctrl | 0.38 / -0.01 / 0.23 / 0.21 / -0.19 / -0.10 | 0.09 | 0/18
T28D/R56E/S107Q | Ctrl | 1.31 / 1.11 / 0.92 / 1.30 / 1.03 / 0.93 | 1.10 | 1/18 (2.82)
F27R/A102T | Ctrl | ND / ND / ND / ND / ND / ND | ND | 0/18
R56M/T104M/S107N | Ctrl | ND / ND / ND / ND / ND / ND | ND | 1/18 (1.89)
N30A/G61T/R100G/A102Y | Ctrl | 1.70 / 1.63 / 1.14 / 1.50 / 1.18 / 3.85 | 1.83 | 0/18
G26D/G33S | Ctrl | ND / ND / ND / ND / ND / ND | ND | 0/18
R56K/A101E | Ctrl | 0.44 / 0.52 / 0.19 / 0.70 / 0.38 / 0.47 | 0.45 | 0/18
G103D/D106S | Ctrl | ND / ND / ND / ND / ND / ND | ND | 0/18
T28D/D106I | Ctrl | ND / ND / ND / ND / ND / ND | ND | 0/18
K65M/G99T | Ctrl | ND / ND / ND / ND / 2.79 / ND | 2.79 | 0/18
L29V/S31E/K65S/S107Q | Ctrl | ND / ND / 1.09 / ND / 1.92 / ND | 1.50 | 0/18
R57K/G61A/S63A/A101C | Ctrl | ND / ND / 2.29 / ND / ND / ND | 2.29 | 0/18
T28A/L29V/K65V/R100D/A102H | Ctrl | ND / ND / ND / ND / ND / ND | ND | 1/18 (1.25)
T28D/F59A/A102H/T104N | Ctrl | ND / ND / ND / ND / ND / ND | ND | 0/18
S31D/G103D | Ctrl | ND / ND / ND / ND / ND / ND | ND | 0/18
R56Y/G61T | Ctrl | ND / ND / 0.66 / ND / ND / ND | 0.66 | 1/18 (2.01)
T28D/G61F/T104V | Ctrl | ND / ND / ND / ND / ND / ND | ND | 0/18
L29I/S31E/R100K/A101C | Ctrl | ND / ND / ND / ND / ND / ND | ND | 0/18
S63E/S107P | Ctrl | ND / ND / ND / ND / ND / ND | ND | 0/18
S63R | Ctrl | ND / ND / ND / 1.94 / 2.17 / ND | 2.06 | 1/18 (0.82)
S31Q/R100F | Ctrl | ND / ND / ND / ND / 1.32 / ND | 1.32 | 0/18

From the AlphaSeq antibody data of Li et al. 2023 (doi:10.1038/s41467-023-39022-2), copy in the FLAb collection.